Drawing on US7727998B2, “Melanin-concentrating hormone receptor antagonists containing piperidine derivatives as the active ingredient” (Banyu Pharmaceutical Co., Ltd., priority 2003, dated 2010), this text covers IC50 for 1 compound.

The chains behind the UniProt entries cited, without tags or fusion partners. Where a name states a change or a piece, a line headed by the entry shows the natural chain unless it says otherwise.
UniProt Q99705: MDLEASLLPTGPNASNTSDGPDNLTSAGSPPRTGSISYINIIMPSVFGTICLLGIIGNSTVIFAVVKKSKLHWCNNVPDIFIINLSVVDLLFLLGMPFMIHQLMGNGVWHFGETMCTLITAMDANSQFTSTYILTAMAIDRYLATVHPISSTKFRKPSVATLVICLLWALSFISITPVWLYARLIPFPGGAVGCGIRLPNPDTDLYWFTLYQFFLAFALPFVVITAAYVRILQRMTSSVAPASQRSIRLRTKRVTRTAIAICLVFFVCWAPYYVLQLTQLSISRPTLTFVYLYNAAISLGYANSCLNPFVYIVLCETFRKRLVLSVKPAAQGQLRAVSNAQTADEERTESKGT

The target in the assay is human MCH-1R (Homo sapiens, UniProt Q99705). The assay can be described thus: MCH binding inhibition test. Conditions: inhibition of specific [125I]MCH (50 pM) binding; membranes of MCH-1R expressing CHO-K1 cells; 25° C., one hour, pH 7.4. The source says:
Pharmacological Test Example 1
(MCH Binding Inhibition Test)
A human MCH-1R encoding cDNA sequence [FEBS Letters, Vol. 398, p. 253 (1996); Biochimica et Biophisica Acta, Vol. 1401, p. 216 (1998)] was cloned to plasmid vector pEF/mic/cyto (Invitrogen Corporation). The obtained expression vector was transfected to a host cell CHO-K1 (American Type Culture Collection) using lipofectamine plus reagent (Life Technology Inc.) to provide MCH-1R expression cells.
Membrane samples prepared from the MCH-1R expression cells were incubated with each test compound and 50 pM of [^125I]MCH (NEN Co.), in an assay buffer (50 mM Tris buffer comprising 10 mM magnesium chloride, 2 mM ethylenediamine tetraacetate, 0.01% bacitracin and 0.2% bovine serum albumin; pH 7.4) at 25° C. for an hour, followed by filtration through Glass Filter GF/C (Wattman Co.). After washing the glass filter with 50 mM Tris buffer (pH7.4) comprising 10 mM magnesium chloride, 2 mM ethylenediamine tetraacetate and 0.04% Tween-20, radiative activity on the glass filter was measured. Non-specific binding was measured in the presence of 1 μM human MCH and 50% inhibition concentration (IC50 value) of each test compound to specific [^125] MCH binding was determined.

Broadly, the IC50 is the midpoint of a concentration-inhibition curve. Low values mean inhibition by little substance, high ones a need for much substance.

As to `CN(CCCN1CCC2(CC1)OCc1ccncc12)C(=O)C(O)(c1ccc(F)nc1)c1ccc(F)c(F)c1` (stereo not shown), the concentration for half-maximal inhibition (IC50) was 1.7 nM.
